Patent publication US20220370471A1, “COMPOSITION AND METHOD FOR TREATMENT OF HIPPOCAMPAL SYNAPSE DYSFUNCTION AND COGNITIVE DEFICITS IN ALZHEIMER'S DISEASE” (BOARD OF REGENTS, THE UNIVERSITY OF TEXAS SYSTEM, priority 2019, published 2022)

Sequences of proteins named here, by UniProt entry; tags and fusion partners are left off. A change or cut given only in a name is not applied to a line headed by its entry.
UniProt Q99P50: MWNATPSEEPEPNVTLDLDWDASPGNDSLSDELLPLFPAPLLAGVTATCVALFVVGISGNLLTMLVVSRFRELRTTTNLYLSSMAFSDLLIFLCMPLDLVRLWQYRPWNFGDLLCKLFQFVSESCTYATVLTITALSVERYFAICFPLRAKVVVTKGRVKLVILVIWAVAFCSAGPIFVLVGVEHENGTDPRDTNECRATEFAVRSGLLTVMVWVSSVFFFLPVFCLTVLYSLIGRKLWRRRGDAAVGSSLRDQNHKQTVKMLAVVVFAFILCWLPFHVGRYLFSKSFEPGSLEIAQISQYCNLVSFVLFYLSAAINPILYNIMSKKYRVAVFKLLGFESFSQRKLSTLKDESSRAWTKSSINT

Molecular target: T1, Ghsr1α (Mus musculus, UniProt Q99P50, INS247CCPGCC)
T1 construct: Mouse full length Ghsr1α cDNA (NCBI Gene ID: 208188) was purchased from OriGene (MR226073); expressed in transfected cells; host or cells: HEK 293T
Experiment: FlAsH-based FRET assay of Ghsr1α activity in HEK 293T cells
Format: cell-based
Conditions: JMV2959 50 μM against MK0677 50 μM
Source text: The interaction with Aβ induces GHSR1α dysfunction. To determine whether s interaction affects the function of Ghsr1α, the inventor examined Ghsr1α activity in Aβ-enriched environments by using fluorescein arsenical hairpin binder (FlAsH)-based fluorescence resonance energy transfer (FRET) assay, which is advantageous for GPCR activity assay because of its minimally-perturbing effect on GPCR function (18). FlAsH-based FRET was created by structural dynamics of Ghsr1α with FlAsH in the intercellular loop 3 and enhanced cyan fluorescent protein (ECFP) in the C-terminus (Ghsr1α^FlAsH/ECFP). Ghsr1α^FlAsH/ECFP was expressed in HEK 293T cells and changes in FRET ratio (FFlAsH/FECFP) was monitored for the measurement of agonist-induced Ghsr1α activation. […] Ghsr1α antagonist, JMV2959 (50 μM) diminished MK0677-mediated FRET ratio decrease (FIG. 2a). […] Oligomeric Aβ42 at indicated concentrations was applied on Ghsr1α^FlAsH/ECFP-expressing HEK 293T cells for 5 minutes (pre-incubation) followed by co-incubation with vehicle or Ghsr1α agonist MK0677. […]
FlAsH-based FRET. […] Fluorescence signals were monitored on microplate reader (BioTek Cytation 5) before and after the treatments. […] Area scanning read mode was used to correct artificial inaccuracies. The FRET ratio (FFlAsH/FECFP) was calculated according to equation as previously reported (69): […]

- effect on MK0677-mediated FRET ratio decrease: diminished
Substance: JMV2959
